The values below come from US20060067886A1, “Gastrin receptor-avid peptide conjugates” (priority 1997, published 2006).

Data set [1] in a line: in vivo. The note with it: SCID, mouse, iv, 4 uCi, total radioactivity, Avg % ID/gm. The method, then:
In vivo pharmacokinetic studies in human tumor bearing SCID mice. […] The xenograft models were produced by bilateral flank inoculation of 5×10^6 cells (PC-3 or MDA-MB-231 cells) per site. Four to six weeks post inoculation, palpable tumors were observed. At this point, the mice were injected with 4 μCi of the complex in […] of isotonic saline via the tail vein. The mice were euthanized and tissues and organs were excised from the animals at selected times post-injection (p.i.), including 15 minutes, 30 minutes, 1 hour, 4 hours, 24 hours, 48 hours, and 72 hours p.i. Subsequently, the tissues and organs were weighed and counted in a NaI well counter and the percent injected dose (% ID) and % ID/g of each organ or tissue calculated.
The mice were injected with 4 μCi of the complex in 100 μL of isotonic saline via the tail vein. The mice were euthanized by cervical dislocation. Tissues and organs were excised from the animals following at 1 hour, 4 hour, and 24 hours post-injection (p.i.). Subsequently, the tissues and organs were weighed and counted in a NaI well counter and the percent injected dose (% ID) and % ID/g of each organ or tissue calculated.

Data set [2] can be described thus: Biodistribution of radiometal-DOTA-BBN conjugates in CF1 normal mice. The settings on record: 1 hour post-injection.

Usually tissue uptake stands for the share of the injected amount in each gram of the tissue. With `CSCC[C@H](NC(=O)[C@H](CC(C)C)NC(=O)[C@H](Cc1cnc[nH]1)NC(=O)CNC(=O)[C@@H](NC(=O)[C@H](C)NC(=O)[C@H](Cc1c[nH]c2ccccc12)NC(=O)[C@H](CCC(N)=O)NC(=O)CCCCCCCNC(=O)CN1CCN(CC(=O)O)CCN(CC(=O)O)CCN(CC(=O)O)CC1)C(C)C)C(N)=O` [111In-DOTA-8-Aoc-BBN[7-14]NH2, metal not drawn], the tissue uptake at 0.25 h in data set [1] (Lung, 15 min) came to 3.35 ± 1.22 %ID/g. For the same molecule, in data set [1] (Tumor, 1 hr), the tissue uptake at 1 h was 3.63 ± 1.11 %ID/g.
Regarding `CSCC[C@H](NC(=O)[C@H](CC(C)C)NC(=O)[C@H](Cc1cnc[nH]1)NC(=O)CNC(=O)[C@@H](NC(=O)[C@H](C)NC(=O)[C@H](Cc1c[nH]c2ccccc12)NC(=O)[C@H](CCC(N)=O)NC(=O)CCCCCCCNC(=O)CN1CCN(CC(=O)O)CCN(CC(=O)O)CCN(CC(=O)O)CC1)C(C)C)C(N)=O` [177Lu-DOTA-8-Aoc-BBN[7-14]NH2] [metal not drawn], in data set [2], the “Avg % ID, Lung” value stood at 0.03 ± 0.04 % ID.
Take `CSCC[C@H](NC(=O)[C@H](CC(C)C)NC(=O)[C@H](Cc1cnc[nH]1)NC(=O)CNC(=O)[C@@H](NC(=O)[C@H](C)NC(=O)[C@H](Cc1c[nH]c2ccccc12)NC(=O)[C@H](CCC(N)=O)NC(=O)CCCCCCCNC(=O)CN1CCN(CC(=O)O)CCN(CC(=O)O)CCN(CC(=O)O)CC1)C(C)C)C(N)=O` [149Pm-DOTA-8-Aoc-BBN[7-14]NH2]: in data set [2], the “Avg % ID/gm, Heart” value stood at 0.03 ± 0.06 % ID/gm and the “Avg % ID/gm, Kidney” value came to 3.74 ± 1.02 % ID/gm.
